{"sequences": {"note": "By UniProt entry, the sequences of proteins in these tests, tags left out.", "UniProt P40818, whole entry": "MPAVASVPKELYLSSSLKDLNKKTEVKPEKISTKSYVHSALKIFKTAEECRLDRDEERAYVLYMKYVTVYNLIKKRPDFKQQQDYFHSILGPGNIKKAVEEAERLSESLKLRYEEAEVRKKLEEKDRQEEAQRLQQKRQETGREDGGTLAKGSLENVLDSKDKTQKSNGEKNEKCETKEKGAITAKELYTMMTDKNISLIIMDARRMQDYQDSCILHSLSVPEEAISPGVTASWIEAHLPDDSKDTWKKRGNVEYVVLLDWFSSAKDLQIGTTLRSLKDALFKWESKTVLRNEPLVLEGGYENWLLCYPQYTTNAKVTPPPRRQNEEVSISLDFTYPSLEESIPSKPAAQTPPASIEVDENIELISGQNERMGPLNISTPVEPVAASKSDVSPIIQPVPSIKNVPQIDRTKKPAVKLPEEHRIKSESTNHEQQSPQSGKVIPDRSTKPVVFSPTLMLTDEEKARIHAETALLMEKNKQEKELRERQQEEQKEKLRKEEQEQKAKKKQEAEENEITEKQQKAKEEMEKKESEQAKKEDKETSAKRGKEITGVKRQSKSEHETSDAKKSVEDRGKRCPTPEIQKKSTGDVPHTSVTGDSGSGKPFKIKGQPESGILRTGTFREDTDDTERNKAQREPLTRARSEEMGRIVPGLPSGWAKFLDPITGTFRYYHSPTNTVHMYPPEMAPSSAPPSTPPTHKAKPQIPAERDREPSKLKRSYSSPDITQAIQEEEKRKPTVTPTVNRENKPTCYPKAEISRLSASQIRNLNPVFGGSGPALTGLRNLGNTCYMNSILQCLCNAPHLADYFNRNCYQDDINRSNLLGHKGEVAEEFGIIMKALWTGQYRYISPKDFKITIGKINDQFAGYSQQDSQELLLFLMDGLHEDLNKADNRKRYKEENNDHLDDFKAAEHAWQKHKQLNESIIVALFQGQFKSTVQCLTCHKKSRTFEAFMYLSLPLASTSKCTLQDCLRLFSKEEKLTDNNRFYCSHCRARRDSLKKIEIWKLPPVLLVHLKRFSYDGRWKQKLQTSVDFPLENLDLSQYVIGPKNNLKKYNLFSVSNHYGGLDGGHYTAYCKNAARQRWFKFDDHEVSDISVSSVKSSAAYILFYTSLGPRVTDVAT"}, "source": "PubChem BioAssay AID1645853", "about": "(Buhrlage Lab, Dana-Farber Cancer Institute and Novartis …, 2021)", "note": "The list shows a part of the results, in another mix than the full data. Some results for these compounds are left out of this collection, so the calls shown say nothing about other tests. Activity calls are given as the source filed them. No stated cut-off is given here; in the data, active means inhibition above about 30%; inactive means the rest.", "data": [{"molecular_target": "Ubiquitin carboxyl-terminal hydrolase 8 (Homo sapiens) (UniProt P40818)", "test": "blocks human USP8 ubiquitin-rhodamine cleavage (AID 1645853)", "conditions": "purified USP8, Ub-rhodamine cleavage fluorescence, 30 min; at 20 µM; hits give high values", "values": [{"smiles": "O=C(NCC1(N2CCCCC2)CCCCC1)c1ccc2ccccc2c1", "inhibition": "inactive: -7.38%"}, {"smiles": "O=C(NCC1(N2CCOCC2)CCCCC1)c1ccccc1F", "inhibition": "inactive: 0.271%"}, {"smiles": "Cc1c(C(=O)NCC2(N(C)C)CCCCC2)oc2ccccc12", "inhibition": "inactive: 8.31%"}, {"smiles": "Cc1c(C(=O)NCC2(N(C)C)CCCCC2)oc2ccc(F)cc12", "inhibition": "inactive: 13.2%"}, {"smiles": "COc1cccc(C(=O)NCC2(N3CCCCC3)CCCCC2)c1", "inhibition": "inactive: -19.5%"}, {"smiles": "COc1ccc(C(=O)NCC2(N3CCOCC3)CCCCC2)cc1", "inhibition": "inactive: -2.64%"}, {"smiles": "O=C(NCC1(N2CCCCC2)CCCCC1)c1ccc2c(c1)OCCO2", "inhibition": "inactive: 15.4%"}]}]}
